Consider two compounds from article PMC6858350, “A common mechanism allows selective targeting of GluN2B subunit-containing N-methyl-D-aspartate receptors” (Communications Biology, 2019).

Sequences of proteins named here, by UniProt entry; tags and fusion partners are left off. Residues count along the entry.
UniProt Q00960, 27-1482: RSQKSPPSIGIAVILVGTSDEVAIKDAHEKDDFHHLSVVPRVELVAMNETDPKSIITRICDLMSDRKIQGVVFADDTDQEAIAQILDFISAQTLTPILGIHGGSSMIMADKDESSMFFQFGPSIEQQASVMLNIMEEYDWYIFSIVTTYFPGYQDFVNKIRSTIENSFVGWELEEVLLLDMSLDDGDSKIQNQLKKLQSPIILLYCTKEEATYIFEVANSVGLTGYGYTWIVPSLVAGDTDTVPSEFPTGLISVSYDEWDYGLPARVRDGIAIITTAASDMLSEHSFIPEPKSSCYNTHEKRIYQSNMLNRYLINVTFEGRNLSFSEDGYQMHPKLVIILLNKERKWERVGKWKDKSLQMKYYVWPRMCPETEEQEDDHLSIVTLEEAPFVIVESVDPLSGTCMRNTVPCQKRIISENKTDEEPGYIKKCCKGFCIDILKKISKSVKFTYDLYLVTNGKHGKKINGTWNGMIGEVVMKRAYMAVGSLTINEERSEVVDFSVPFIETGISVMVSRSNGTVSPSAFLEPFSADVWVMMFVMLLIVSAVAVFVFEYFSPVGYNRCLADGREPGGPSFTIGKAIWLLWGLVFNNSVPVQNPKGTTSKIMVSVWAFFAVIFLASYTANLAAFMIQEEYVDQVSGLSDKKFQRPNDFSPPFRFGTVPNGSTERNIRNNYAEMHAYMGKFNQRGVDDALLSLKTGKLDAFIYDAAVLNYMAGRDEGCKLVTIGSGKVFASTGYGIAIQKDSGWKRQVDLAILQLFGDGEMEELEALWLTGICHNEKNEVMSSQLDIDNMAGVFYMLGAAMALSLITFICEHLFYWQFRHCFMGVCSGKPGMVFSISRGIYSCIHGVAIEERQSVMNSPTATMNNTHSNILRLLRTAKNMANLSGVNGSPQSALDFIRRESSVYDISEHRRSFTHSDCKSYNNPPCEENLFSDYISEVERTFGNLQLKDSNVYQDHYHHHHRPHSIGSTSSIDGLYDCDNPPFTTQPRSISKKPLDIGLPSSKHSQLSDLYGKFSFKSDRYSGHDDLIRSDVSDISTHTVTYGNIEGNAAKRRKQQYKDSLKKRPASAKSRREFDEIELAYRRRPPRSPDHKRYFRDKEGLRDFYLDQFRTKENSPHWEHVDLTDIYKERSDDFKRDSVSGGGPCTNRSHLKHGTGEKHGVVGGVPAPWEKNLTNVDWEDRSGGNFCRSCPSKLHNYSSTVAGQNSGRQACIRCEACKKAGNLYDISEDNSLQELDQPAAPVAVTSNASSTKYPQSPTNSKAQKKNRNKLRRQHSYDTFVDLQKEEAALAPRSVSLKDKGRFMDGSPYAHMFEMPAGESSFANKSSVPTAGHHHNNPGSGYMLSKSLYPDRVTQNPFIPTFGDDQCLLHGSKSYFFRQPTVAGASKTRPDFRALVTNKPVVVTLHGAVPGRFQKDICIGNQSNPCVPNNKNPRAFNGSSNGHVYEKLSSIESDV
UniProt Q00960, 27-1482 Q110A: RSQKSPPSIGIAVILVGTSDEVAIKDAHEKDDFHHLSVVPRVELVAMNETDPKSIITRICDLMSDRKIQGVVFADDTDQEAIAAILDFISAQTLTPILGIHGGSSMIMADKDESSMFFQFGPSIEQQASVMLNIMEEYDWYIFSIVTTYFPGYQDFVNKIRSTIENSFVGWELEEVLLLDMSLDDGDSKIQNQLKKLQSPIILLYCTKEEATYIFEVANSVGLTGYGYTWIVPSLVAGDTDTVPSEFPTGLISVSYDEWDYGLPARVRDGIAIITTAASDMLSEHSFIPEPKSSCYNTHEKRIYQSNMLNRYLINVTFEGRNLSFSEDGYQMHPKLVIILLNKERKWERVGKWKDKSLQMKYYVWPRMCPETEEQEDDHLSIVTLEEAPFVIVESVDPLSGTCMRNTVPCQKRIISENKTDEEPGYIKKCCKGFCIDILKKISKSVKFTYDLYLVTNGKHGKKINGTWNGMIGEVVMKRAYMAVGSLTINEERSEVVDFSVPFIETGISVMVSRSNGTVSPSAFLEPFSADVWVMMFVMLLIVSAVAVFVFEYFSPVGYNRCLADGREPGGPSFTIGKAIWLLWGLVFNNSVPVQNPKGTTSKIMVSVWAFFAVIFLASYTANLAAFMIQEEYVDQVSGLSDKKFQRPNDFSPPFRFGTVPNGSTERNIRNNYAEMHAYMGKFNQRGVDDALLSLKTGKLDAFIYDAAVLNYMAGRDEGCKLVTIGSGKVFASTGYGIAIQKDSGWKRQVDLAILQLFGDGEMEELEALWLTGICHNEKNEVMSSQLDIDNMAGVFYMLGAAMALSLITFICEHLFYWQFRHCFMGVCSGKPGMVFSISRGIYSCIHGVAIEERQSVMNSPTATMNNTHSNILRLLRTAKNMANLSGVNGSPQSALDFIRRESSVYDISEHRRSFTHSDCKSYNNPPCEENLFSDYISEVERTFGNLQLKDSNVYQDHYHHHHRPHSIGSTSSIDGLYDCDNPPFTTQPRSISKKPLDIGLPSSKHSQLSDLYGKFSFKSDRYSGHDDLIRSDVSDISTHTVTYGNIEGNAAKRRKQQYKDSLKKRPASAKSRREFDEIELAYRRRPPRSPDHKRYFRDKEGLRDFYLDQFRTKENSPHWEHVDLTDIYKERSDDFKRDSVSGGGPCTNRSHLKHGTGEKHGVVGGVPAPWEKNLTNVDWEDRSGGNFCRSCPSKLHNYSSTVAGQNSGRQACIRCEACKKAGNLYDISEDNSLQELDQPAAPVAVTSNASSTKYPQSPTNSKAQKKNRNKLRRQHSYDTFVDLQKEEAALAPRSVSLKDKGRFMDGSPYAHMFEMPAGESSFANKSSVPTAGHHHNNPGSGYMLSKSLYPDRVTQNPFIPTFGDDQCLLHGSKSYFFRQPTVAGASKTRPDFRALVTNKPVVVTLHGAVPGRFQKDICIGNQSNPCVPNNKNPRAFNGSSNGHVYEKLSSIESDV
UniProt Q00960, 27-1482 I111A: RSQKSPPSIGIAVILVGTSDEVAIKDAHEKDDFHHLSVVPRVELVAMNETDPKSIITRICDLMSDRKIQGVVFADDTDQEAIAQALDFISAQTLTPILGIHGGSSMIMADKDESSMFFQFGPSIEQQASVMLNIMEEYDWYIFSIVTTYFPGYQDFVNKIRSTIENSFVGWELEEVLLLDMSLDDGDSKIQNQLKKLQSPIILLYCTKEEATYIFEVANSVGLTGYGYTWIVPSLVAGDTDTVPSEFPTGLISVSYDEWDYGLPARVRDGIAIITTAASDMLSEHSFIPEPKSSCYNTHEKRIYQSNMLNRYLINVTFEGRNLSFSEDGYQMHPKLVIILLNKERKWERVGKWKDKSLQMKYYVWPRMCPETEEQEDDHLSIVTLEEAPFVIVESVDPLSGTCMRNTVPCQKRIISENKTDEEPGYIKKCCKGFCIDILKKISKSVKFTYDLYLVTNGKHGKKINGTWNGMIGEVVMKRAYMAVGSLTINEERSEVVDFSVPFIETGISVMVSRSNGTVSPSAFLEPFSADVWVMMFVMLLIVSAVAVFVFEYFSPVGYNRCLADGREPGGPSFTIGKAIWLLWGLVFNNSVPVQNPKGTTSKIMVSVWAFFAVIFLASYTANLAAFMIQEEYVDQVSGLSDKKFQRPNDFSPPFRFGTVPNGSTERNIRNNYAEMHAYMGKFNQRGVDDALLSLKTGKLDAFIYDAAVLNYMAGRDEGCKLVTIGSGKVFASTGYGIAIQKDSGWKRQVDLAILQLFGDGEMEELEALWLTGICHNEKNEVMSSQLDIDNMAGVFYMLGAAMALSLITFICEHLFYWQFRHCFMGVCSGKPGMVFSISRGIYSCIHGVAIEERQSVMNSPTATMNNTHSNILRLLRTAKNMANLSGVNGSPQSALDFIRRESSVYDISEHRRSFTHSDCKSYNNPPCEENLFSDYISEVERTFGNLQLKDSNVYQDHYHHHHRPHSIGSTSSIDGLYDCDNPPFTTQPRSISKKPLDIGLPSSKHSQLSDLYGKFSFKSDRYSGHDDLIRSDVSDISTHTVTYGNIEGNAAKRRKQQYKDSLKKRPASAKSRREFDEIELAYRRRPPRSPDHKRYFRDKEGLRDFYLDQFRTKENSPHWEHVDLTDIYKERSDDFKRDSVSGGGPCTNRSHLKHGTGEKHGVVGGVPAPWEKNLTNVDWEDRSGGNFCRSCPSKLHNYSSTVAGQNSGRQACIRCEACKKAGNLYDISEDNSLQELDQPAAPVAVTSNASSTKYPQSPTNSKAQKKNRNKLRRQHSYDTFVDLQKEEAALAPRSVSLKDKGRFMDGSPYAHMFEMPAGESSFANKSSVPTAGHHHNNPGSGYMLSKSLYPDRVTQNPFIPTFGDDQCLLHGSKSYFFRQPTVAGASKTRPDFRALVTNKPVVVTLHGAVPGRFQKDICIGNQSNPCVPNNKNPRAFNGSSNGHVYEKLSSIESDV
UniProt Q00960, 27-1482 F176A: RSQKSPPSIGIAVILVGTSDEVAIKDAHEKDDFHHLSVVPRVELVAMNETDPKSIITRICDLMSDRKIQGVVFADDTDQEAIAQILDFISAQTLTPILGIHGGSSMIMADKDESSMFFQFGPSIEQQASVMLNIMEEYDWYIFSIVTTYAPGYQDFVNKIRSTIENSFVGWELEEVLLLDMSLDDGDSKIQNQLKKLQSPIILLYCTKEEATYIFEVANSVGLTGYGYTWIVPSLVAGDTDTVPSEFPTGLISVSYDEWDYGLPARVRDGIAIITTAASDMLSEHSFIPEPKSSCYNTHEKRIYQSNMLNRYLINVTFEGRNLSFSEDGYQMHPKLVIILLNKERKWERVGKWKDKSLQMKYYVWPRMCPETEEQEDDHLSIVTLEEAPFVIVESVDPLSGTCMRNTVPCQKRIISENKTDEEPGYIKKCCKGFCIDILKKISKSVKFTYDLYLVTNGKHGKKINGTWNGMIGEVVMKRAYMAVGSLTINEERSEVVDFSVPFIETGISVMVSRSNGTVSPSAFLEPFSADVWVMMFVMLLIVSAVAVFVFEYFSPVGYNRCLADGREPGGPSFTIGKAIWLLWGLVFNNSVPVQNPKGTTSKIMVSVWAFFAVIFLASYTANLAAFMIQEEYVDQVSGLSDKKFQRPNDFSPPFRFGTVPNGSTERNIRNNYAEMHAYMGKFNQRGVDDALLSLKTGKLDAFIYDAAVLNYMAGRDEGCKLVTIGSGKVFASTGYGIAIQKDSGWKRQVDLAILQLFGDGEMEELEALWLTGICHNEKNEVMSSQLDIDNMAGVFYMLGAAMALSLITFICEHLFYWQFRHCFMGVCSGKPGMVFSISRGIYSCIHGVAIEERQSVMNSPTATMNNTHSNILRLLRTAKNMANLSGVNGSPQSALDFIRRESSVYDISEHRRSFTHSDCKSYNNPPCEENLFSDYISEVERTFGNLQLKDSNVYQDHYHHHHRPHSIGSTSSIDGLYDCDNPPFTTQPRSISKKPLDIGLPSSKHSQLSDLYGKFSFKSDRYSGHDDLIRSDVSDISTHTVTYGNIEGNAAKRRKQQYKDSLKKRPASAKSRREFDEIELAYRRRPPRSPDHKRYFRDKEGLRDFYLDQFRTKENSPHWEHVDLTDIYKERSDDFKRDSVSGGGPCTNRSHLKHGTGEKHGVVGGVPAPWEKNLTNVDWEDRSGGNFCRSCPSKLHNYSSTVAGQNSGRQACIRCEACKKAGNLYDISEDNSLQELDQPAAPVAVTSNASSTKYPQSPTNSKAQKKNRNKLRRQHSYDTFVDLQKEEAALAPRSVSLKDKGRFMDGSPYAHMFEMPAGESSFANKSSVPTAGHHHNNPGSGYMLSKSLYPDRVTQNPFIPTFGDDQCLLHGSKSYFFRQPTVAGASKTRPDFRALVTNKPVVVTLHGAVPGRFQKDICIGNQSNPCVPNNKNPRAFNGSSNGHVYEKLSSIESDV

Assay [1] concerns the target GluN1-1a Y109S/GluN2B WT (Rattus norvegicus, UniProt P35439+Q00960, Y109S). As to conditions: mutant IC50 / wildtype IC50, GluN1-1a Y109S.
Assay [2] has as its target GluN1-1a F113S/GluN2B WT (Rattus norvegicus, UniProt P35439+Q00960, F113S). Conditions: mutant IC50 / wildtype IC50, GluN1-1a F113S.
Assay [3] addresses GluN1-1a S132A/GluN2B WT (Rattus norvegicus, UniProt P35439+Q00960, S132A). As to conditions: mutant IC50 / wildtype IC50, GluN1-1a S132A.
Assay [4] has as its target GluN1-1a L135N/GluN2B WT (Rattus norvegicus, UniProt P35439+Q00960, L135N). As to conditions: mutant IC50 / wildtype IC50, GluN1-1a L135N.
For assay [5], the target named is GluN1-1a WT/GluN2B Q110A (Rattus norvegicus, UniProt P35439+Q00960, Q110A). Conditions: mutant IC50 / wildtype IC50, GluN2B Q110A.
Assay [6] deals with GluN1-1a WT/GluN2B I111A (Rattus norvegicus, UniProt P35439+Q00960, I111A). Conditions: mutant IC50 / wildtype IC50, GluN2B I111A.
Assay [7] deals with GluN1-1a WT/GluN2B F176A (Rattus norvegicus, UniProt P35439+Q00960, F176A). As to conditions: mutant IC50 / wildtype IC50, GluN2B F176A.
The target of assay [8] is GluN1-1a WT/GluN2B F176Y (Rattus norvegicus, UniProt P35439+Q00960, F176Y). Conditions: mutant IC50 / wildtype IC50, GluN2B F176Y.
Assay [9] has as its target GluN1-1a WT/GluN2B E236A (Rattus norvegicus, UniProt P35439+Q00960, E236A). As to conditions: mutant IC50 / wildtype IC50, GluN2B E236A.

For the compound `Oc1ccc2c(c1)CCN(CCCCc1ccccc1)C[C@@H]2O` [compound (R)-1], the IC50 shift factor in [1] turned out to be 0.4; in [2] it was 2.2; in [3] it was 2.0; in assay [4], 5.5; in [5] it was 7.4; in [6] it was 2.6. Also, the IC50 shift factor was 1977.1 in [7], 2.0 in [8] and 3.7 in assay [9].

For the compound `Oc1ccc2c(c1)CCN(CCCCc1ccccc1)C[C@H]2O` [compound (S)-1], the IC50 shift factor is listed as 3.4 in assay [3]; 17.8 in assay [4]; 1.2 in assay [5]; 75.4 in assay [7]; 1.3 in assay [8].
